ChEMBL document CHEMBL4390675, “Dopamine D4 Receptor-Selective Compounds Reveal Structure-Activity Relationships that Engender Agonist Efficacy” (J Med Chem, 2019)
The source made the active and inactive calls. No cut-off for these calls is given here.

Protein sequences, listed by entry. Tags and fused reporters are not part of them.
UniProt P21917, whole entry: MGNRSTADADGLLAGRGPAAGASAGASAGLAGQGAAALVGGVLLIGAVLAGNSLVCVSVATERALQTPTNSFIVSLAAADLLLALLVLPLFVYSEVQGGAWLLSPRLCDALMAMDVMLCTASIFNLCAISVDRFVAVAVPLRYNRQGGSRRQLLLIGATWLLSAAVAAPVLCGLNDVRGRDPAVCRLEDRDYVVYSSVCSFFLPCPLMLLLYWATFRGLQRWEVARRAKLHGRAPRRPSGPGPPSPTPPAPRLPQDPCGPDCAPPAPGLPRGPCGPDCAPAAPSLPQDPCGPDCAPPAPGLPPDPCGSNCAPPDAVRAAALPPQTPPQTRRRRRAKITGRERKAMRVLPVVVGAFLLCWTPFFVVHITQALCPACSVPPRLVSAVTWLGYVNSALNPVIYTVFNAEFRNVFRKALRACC
UniProt P35462, whole entry: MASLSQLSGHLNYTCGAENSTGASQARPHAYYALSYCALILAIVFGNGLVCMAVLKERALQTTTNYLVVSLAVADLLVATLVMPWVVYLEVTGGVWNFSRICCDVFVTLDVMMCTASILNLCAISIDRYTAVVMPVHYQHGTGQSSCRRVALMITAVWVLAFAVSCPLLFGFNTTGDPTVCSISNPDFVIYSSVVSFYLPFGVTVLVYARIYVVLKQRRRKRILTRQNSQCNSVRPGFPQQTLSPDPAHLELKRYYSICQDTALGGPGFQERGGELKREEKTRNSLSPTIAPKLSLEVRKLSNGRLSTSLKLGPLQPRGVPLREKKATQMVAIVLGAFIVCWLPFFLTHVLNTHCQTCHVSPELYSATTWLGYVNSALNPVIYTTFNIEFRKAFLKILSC

Key:
D(4) dopamine receptor [1] = target: T1, D(4) dopamine receptor (Homo sapiens, UniProt P21917); assay: Agonist activity at human D4 receptor expressed in CHOK1 cells assessed as inhibition of forskolin-induced cAMP accumulation measured after 30 mins by Eu-cAMP tracer based TR-FRET assay relative to dopamine; format: functional, cell-based
Outline: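 LANCE Ultra TR-FRET cAMP assay in CHO-K1 cells stably expressing human D2R long isoform or D4R. Cells were plated in HBSS/5 mM HEPES/0.2 μM metabisulfite, then immediately given compound plus forskolin (10 μM final) for 30 min at room temperature. Eu-cAMP tracer and ULight-anti-cAMP were added for 2 h in the dark. Values are % of maximal dopamine signal, nonlinear regression of triplicate runs, n = 3–4.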

D(4) dopamine receptor [2] = target: T1, D(4) dopamine receptor; assay: Antagonist activity at human D4 receptor expressed in CHOK1 cells assessed as suppression of dopamine-induced inhibition of forskolin-stimulated cAMP accumulation measured after 30 mins by Eu-cAMP tracer based TR-FRET assay relative to dopamine; format: functional, cell-based; design: concentration or dose not given beside the values
D(3) dopamine receptor [3] = target: T2, D(3) dopamine receptor (Homo sapiens, UniProt P35462); assay: Agonist activity at human D3 receptor expressed in CHOK1 cells assessed as induction of beta-arrestin recruitment measured after 90 mins by luminescence assay relative to control; format: cell-based
Outline: (§1)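 PathHunter enzyme-complementation assay in CHO-K1 cells stably expressing human D2R long isoform, D3R or D4R, seeded overnight in Ham's F12/10% FBS. Compounds were diluted in PBS with 0.2 μM sodium metabisulfite and applied at multiple concentrations for 90 min at 37 °C. Detection reagent was added for 45–60 min at room temperature, then luminescence was read. Values are % of maximal dopamine response, from nonlinear regression of triplicate runs, mean ± SEM, n = 3–4.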

D(4) dopamine receptor [4] = target: T1, D(4) dopamine receptor; assay: Agonist activity at human D4 receptor expressed in CHOK1 cells assessed as induction of beta-arrestin recruitment measured after 90 mins by luminescence assay relative to control; format: cell-based; outline: as §1
D(4) dopamine receptor [5] = target: T1, D(4) dopamine receptor; assay: Antagonist activity at human D4 receptor expressed in CHOK1 cells assessed as inhibition of dopamine-induced beta-arrestin recruitment measured after 90 mins by luminescence assay relative to control; format: cell-based; design: concentration or dose not given beside the values
D(3) dopamine receptor [6] = target: T2, D(3) dopamine receptor; assay: Antagonist activity at human D3 receptor expressed in CHOK1 cells assessed as inhibition of dopamine-induced beta-arrestin recruitment measured after 90 mins by luminescence assay relative to control; format: cell-based
Outline: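 Antagonist-mode PathHunter β-arrestin assay in CHO-K1 cells stably expressing human D2R long isoform or D3R, seeded overnight. Compound dilutions in PBS with 0.2 μM metabisulfite were co-incubated with an EC80 dopamine concentration for 90 min at 37 °C. Detection reagent was added for 45–60 min at room temperature, then luminescence was read. Values are % of dopamine EC80 response, from nonlinear regression of triplicate runs, n = 3–4.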

| SMILES | Emax (D(4) dopamine receptor [1]) | inhibition (D(4) dopamine receptor [2]) [%] | Emax (D(3) dopamine receptor [3]) | Emax (D(4) dopamine receptor [4]) | inhibition (D(4) dopamine receptor [5]) | inhibition (D(3) dopamine receptor [6]) |
| --- | --- | --- | --- | --- | --- | --- |
| CCc1cccc(NC(=O)CN2CCC(c3ccccn3)CC2)c1 | 25.6% | 70.8 | inactive | inactive | 91.7% | – |
| Cc1cccc(NC(=O)CCN2CCC(c3ccccn3)CC2)c1 | 28.1% | 77.6 | – | inactive | 98.7% | – |
| Cc1cccc(NC(=O)CN2CCC(c3ccc(Cl)cc3)CC2)c1 | inactive | 100 | inactive | inactive | 100% | inactive |
| O=C(CN1CCN(c2ccc(Cl)cn2)CC1)Nc1cncnc1 | inactive | 100 | inactive | inactive | 100% | inactive |
| Cc1ccc(C2CCN(CC(=O)Nc3cccc(C)c3)CC2)nc1 | inactive | 100 | inactive | inactive | 98.1% | inactive |
| Cc1cccc(NC(=O)CCN2CCN(c3ncccn3)CC2)c1 | 13.7% | 87 | inactive | inactive | 97.1% | – |
| O=C(CN1CCN(c2ccccn2)CC1)Nc1cncnc1 | inactive | 100 | inactive | inactive | inactive | inactive |
| O=C(CN1CCN(c2ccc(Cl)cn2)CC1)Nc1cccnc1 | inactive | 100 | inactive | inactive | 93.1% | inactive |
| Cc1cccc(NC(=O)CN2CCN(c3ccc(Cl)cn3)CC2)c1 | inactive | – | inactive | inactive | – | inactive |
| O=C(CN1CCN(c2ccccn2)CC1)Nc1cccnc1 | – | – | 18.6% | – | – | inactive |
| Cc1cccc(NC(=O)CN2CCC(c3ccccc3)CC2)c1 | – | – | inactive | – | – | – |
| Cc1ccc(C2CCN(CC(=O)Nc3cccc(C)c3)CC2)cc1 | inactive | 95.8 | inactive | inactive | 100% | inactive |
| Cc1cccc(NC(=O)CN2CCN(c3cccc4ccccc34)CC2)c1 | – | – | inactive | – | – | inactive |
| Cc1cccc(NC(=O)CCN2CCN(c3ccccn3)CC2)c1 | 30% | 84.2 | – | inactive | 97.9% | – |
| CCc1cccc(NC(=O)CN2CCN(c3ccc(Cl)cn3)CC2)c1 | inactive | 100 | inactive | inactive | 80.4% | inactive |
